This is an account of results in PubChem BioAssay AID1439 (NMMLSC, 2008).

Chains of the proteins cited; added tags and fusions are not shown.
UniProt P09471, whole entry: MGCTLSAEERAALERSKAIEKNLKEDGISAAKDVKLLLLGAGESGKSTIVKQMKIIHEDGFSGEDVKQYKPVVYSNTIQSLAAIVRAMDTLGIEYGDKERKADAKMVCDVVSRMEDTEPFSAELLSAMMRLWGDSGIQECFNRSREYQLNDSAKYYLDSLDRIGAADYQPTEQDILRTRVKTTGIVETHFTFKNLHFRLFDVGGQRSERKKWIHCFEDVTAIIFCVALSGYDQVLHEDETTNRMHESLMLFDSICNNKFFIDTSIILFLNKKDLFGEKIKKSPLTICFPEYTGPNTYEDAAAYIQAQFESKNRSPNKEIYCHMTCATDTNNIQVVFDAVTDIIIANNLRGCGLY

Structures are written as SMILES. The entries are a selection whose mix differs from that of the whole data set. Records with an inconclusive call do not appear. Calls of active or inactive are those of the source. No stated cut-off is given here; in the data, active means binding response below about 49% or above about 150%; inconclusive means no clear call, values can overlap the other calls; inactive means in between.

The assay has as its target Guanine nucleotide-binding protein G(o) subunit alpha (Homo sapiens) (UniProt P09471). Put plainly: RGS7-Galphao binding modulators, primary screen, biochemical, multiplexed bead flow cytometry (AID 1439).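 Further: fluorescent Galphao held in activated GDP-AlF4 state binding bead-coupled RGS7.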 As to conditions: at 10 µM, actives lie on both sides.
`CCOC(=O)c1ccc(NP(C)(=O)Oc2ccc(Cl)cc2)cc1` (stereo not drawn): the binding response (% of control) was inactive: 102%.

Regarding `CP(=O)(OC12CC3CC(CC(C3)C1)C2)OC12CC3CC(CC(C3)C1)C2`, the binding response (% of control) was inactive: 101%. The same measure for `COc1ccccc1OP(C)(=O)Nc1ccccc1Br` (stereo not drawn): inactive: 105%; for `CC(C)(C)c1ccc(OP(C)(=O)O)cc1`: inactive: 109%. The same measure for `CP(=O)(Nc1ccc(Cl)cc1)Oc1ccc(F)cc1` (stereo not drawn): inactive: 102%.

On to `CN(C)C(=O)c1c([N+](=O)[O-])cc([N+](=O)[O-])cc1[N+](=O)[O-]`, for which the binding response (% of control) was inactive: 93.9%.

Regarding `COc1ccc(OP(C)(=O)Nc2ccc(Br)cc2)cc1` (stereo not drawn), the binding response (% of control) was inactive: 96.3%. Consider `CCN(CC)CC(O)COC(=O)C(O)(c1ccccc1)C1CCCCC1` (stereo not drawn), for which the binding response (% of control) was inactive: 101%. As for `CP(=O)(Oc1ccccc1)N1CCOC1=O` (stereo not drawn), the binding response (% of control) is inactive: 101%. To `Cc1c(NP(C)(=O)Oc2ccc(C(C)C)cc2)c(=O)n(-c2ccccc2)n1C` (stereo not drawn) belongs inactive: 94.2%. The same measure for `COc1ccccc1OP(C)(=O)Nc1ccc(C)cc1C` (stereo not drawn): inactive: 98.7%; for `CP(=O)(Nc1ccccn1)Oc1ccccc1` (stereo not drawn): inactive: 102%; for `CCc1ccc(OP(C)(=O)O)cc1`: inactive: 100%. For the molecule `COc1ccc(OP(C)(=O)Nc2ccccn2)cc1` (stereo not drawn), the binding response (% of control) is inactive: 114%.

Take `CN(C)CCOC(=O)C(O)(c1ccccc1)C1CCCC1` (stereo not drawn): the binding response (% of control) is inactive: 106%. To `Cc1nc2ccc3ccccc3c2o1.O=[N+]([O-])c1cc([N+](=O)[O-])c(O)c([N+](=O)[O-])c1` belongs inactive: 100%; to `Cc1cc(C)cc(OP(C)(=O)Nc2cccc(C(F)(F)F)c2)c1` (stereo not drawn), inactive: 99.9%. Turning to `COc1ccccc1OP(C)(=O)Nc1ccc(C)c(C)c1` (stereo not drawn), the binding response (% of control) is inactive: 101%. To `COc1ccc(OP(C)(=O)Nc2ccccc2Br)cc1` (stereo not drawn) belongs inactive: 97.6%. In the case of `CP(=O)(Nc1ccccc1)Oc1ccc(F)cc1` (stereo not drawn), the binding response (% of control) was inactive: 99%. With `CCOC(=O)c1ccc(NP(C)(=O)Oc2ccc(F)cc2)cc1` (stereo not drawn), the binding response (% of control) is inactive: 96.6%. For `COc1ccc(OP(C)(=O)Nc2ccc(SC(F)(F)F)cc2)cc1` (stereo not drawn), the binding response (% of control) is inactive: 103%.

`O=C(OCCN1CCN(CCOCc2ccccc2)CC1)C(O)(c1ccccc1)c1ccccc1`: the binding response (% of control) is inactive: 100%. `CP(=O)(Nc1ccccc1F)Oc1ccccc1` (stereo not drawn): the binding response (% of control) was inactive: 89.3%.

For `CC(C)c1ccc(OP(C)(=O)Nc2ccc(SC(F)(F)F)cc2)cc1` (stereo not drawn), the binding response (% of control) was inactive: 99.5%. The same measure for `CP(=O)(Nc1ccc2c(c1)OCCO2)Oc1ccccc1` (stereo not drawn): inactive: 88.4%; for `Cc1ccccc1NP(C)(=O)Nc1ccccc1C`: inactive: 99.5%; for `CCOP(C)(=S)SCC(=O)NC(C)(CC)C(=O)O` (stereo not drawn): inactive: 102%. For the molecule `COc1ccc(OP(C)(=O)Nc2cccc(Br)c2)cc1` (stereo not drawn), the binding response (% of control) is inactive: 97.8%. As to `CN(C)CCOC(=O)C(O)(c1ccccc1)C1CCCCC1` (stereo not drawn), the binding response (% of control) was inactive: 101%. As to `COc1ccc(NP(C)(=O)Oc2ccccc2OC)cc1` (stereo not drawn), the binding response (% of control) was inactive: 104%. On to `CN1CCCCC1COC(=O)C1(O)c2ccccc2CCc2ccccc21` (stereo not drawn), for which the binding response (% of control) is inactive: 100%. Consider `COc1ccccc1OP(C)(=O)Nc1c(C)cccc1C` (stereo not drawn), for which the binding response (% of control) is inactive: 96.8%. For `CCCOc1ccc(NP(C)(=O)Oc2ccc(Cl)cc2)cc1` (stereo not drawn), the binding response (% of control) is inactive: 104%.

In the case of `CP(=O)(Nc1ccc(SC(F)(F)F)cc1)Oc1ccccc1` (stereo not drawn), the binding response (% of control) is inactive: 96.7%. To `Cc1nc2ccc3ccccc3c2s1.O=[N+]([O-])c1cc([N+](=O)[O-])c(O)c([N+](=O)[O-])c1` belongs inactive: 96.2%; to `O=[N+]([O-])c1cc([N+](=O)[O-])c(-n2nnc3ccccc32)c([N+](=O)[O-])c1`, inactive: 78.5%; to `Cc1ccc(C)c(NP(C)(=O)Oc2ccccc2)c1` (stereo not drawn), inactive: 86.3%.

In the case of `Cc1cc(C)cc(OP(C)(=O)Nc2ccccn2)c1` (stereo not drawn), the binding response (% of control) is inactive: 101%. Consider `CCOC(=O)c1ccc(NP(C)(=O)Oc2cc(C)cc(C)c2)cc1` (stereo not drawn), for which the binding response (% of control) is inactive: 107%.

Take `Cc1cc(C)cc(OP(C)(=O)Nc2ccc(C)cc2C)c1` (stereo not drawn): the binding response (% of control) is inactive: 103%. In the case of `CC1=NCCc2c1[nH]c1ccccc21.O=[N+]([O-])c1cc([N+](=O)[O-])c(O)c([N+](=O)[O-])c1`, the binding response (% of control) was inactive: 115%.

`Cc1ccc(NP(C)(=O)Oc2ccccc2)c(C)c1` (stereo not drawn): the binding response (% of control) is inactive: 102%. To `COc1ccccc1OP(C)(=O)Nc1ccc(C)cc1` (stereo not drawn) belongs inactive: 94.3%; to `CCOC(=O)c1ccc(NP(C)(=O)Oc2ccccc2)cc1` (stereo not drawn), inactive: 105%.

On to `COc1ccc(OP(C)(=O)Nc2cccc(F)c2)cc1` (stereo not drawn), for which the binding response (% of control) is inactive: 97.3%. `COc1ccccc1OP(C)(=O)Nc1cc(Cl)ccc1C` (stereo not drawn): the binding response (% of control) is inactive: 101%. Take `CC(C)(C)c1ccc(OP(C)(=O)Nc2ccc(SC(F)(F)F)cc2)cc1` (stereo not drawn): the binding response (% of control) is inactive: 100%. To `CCN(CC)CCCOC(=O)C(O)(c1ccccc1)c1ccccc1` belongs inactive: 96.1%; to `CCOC(=O)c1ccc(NP(C)(=O)Oc2ccc(OC)cc2)cc1` (stereo not drawn), inactive: 106%; to `CCOP(C)(=S)SCC(=O)NC(C)C(=O)O` (stereo not drawn), inactive: 102%.

Take `CP(=O)(Nc1ccccn1)Oc1ccc(Cl)cc1` (stereo not drawn): the binding response (% of control) is inactive: 99.3%.

With `Cc1cccc(C)c1OP(C)(=O)Nc1ccc(SC(F)(F)F)cc1` (stereo not drawn), the binding response (% of control) is inactive: 95.3%.

On to `Cc1cc(C)cc(OP(C)(=O)Nc2ccc(SC(F)(F)F)cc2)c1` (stereo not drawn), for which the binding response (% of control) was inactive: 104%. Consider `CP(=O)(NC(=O)Nc1ccccc1)Oc1ccccc1` (stereo not drawn), for which the binding response (% of control) is inactive: 96.4%.

As to `CP(=S)(Nn1cnnc1)Oc1ccccc1` (stereo not drawn), the binding response (% of control) is inactive: 114%. The same measure for `CP(=O)(Nc1ccccc1Br)Oc1ccccc1` (stereo not drawn): inactive: 103%.

Consider `COc1ccccc1OP(C)(=O)Nc1ccccc1` (stereo not drawn), for which the binding response (% of control) is inactive: 110%.
